By Ki is commonly meant a measure of affinity in units of concentration, obtained from inhibition or displacement. A high value points to lower affinity.

By UniProt entry, the sequences of proteins in these tests, tags left out.
UniProt P25774, whole entry: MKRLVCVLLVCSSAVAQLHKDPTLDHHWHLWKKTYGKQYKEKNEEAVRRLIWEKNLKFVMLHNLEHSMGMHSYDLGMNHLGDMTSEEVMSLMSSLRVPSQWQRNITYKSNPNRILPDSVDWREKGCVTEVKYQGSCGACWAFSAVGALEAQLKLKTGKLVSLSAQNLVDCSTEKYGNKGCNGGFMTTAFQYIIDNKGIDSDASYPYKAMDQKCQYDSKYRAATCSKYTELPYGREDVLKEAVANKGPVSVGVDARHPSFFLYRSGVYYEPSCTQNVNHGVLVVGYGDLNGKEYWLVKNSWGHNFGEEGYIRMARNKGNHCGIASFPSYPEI

The record followed here is BindingDB's records for patent US9200006 (Medivir, 2015).

This assay concerns the target Cathepsin S (Homo sapiens, UniProt P25774). In words: Biological Assay (Test 1). As to conditions: pH 7. The protocol: Standard assay conditions for the determination of kinetic constants used a fluorogenic peptide substrate, typically H-D-Ala-Leu-Lys-AMC, and were determined in either 100 mM Mes/Tris, pH 7.0 containing 1 mM EDTA and 10 mM 2-mercaptoethanol or 100 mMNa phosphate, imM EDTA, 0.1% PEG4000 pH 6.5 or 100 mM Na acetate, pH 5.5 containing 5 mM EDTA and 20 mM cysteine, in each case optionally with 1M DTT as stabiliser. The enzyme concentration used was 5 nM. The stock substrate solution was prepared at 10 mM in DMSO. Screens were carried out at a fixed substrate concentration of 60 uM and detailed kinetic studies with doubling dilutions of substrate from 250 uM. The total DMSO concentration in the assay was kept below 3%. All assays were conducted at ambient temperature. Product fluorescence (excitation at 390 nm, emission at 460 nm) was monitored with a Labsystems Fluoroskan Ascent fluorescent plate reader. The first test compound prepared in DMSO is added to column 1 of the top row.

Some results are limits rather than exact numbers.

`C#C[C@@H]1CN(C(=O)[C@H](CC(C)C)NC(=O)c2ccc(-c3csc(N4CCN(C)CC4)n3)c(F)c2)[C@@H]2C(=O)CO[C@H]12` [US9200006, 3]: the Ki is over 10 µM.
